# B1: STING (natural protein, human (endogenous in HT1080), UniProt Q86WV6 1-379, looked up)
# chain: MPHSSLHPSIPCPRGHGAQKAALVLLSACLVTLWGLGEPPEHTLRYLVLHLASLQLGLLLNGVCSLAEELRHIHSRYRGSYWRTVRACLGCPLRRGALLLLSIYFYYSLPNAVGPPFTWMLALLGLSQALNILLGLKGLAPAEISAVCEKGNFNVAHGLAWSYYIGYLRLILPELQARIRTYNQHYNNLLRGAVSQRLYILLPLDCGVPDNLSMADPNIRFLDKLPQQTGDHAGIKDRVYSNSIYELLENGQRAGTCVLEYATPLQTLFAMSQYSQAGFSREDRLEQAKLFCRTLEDILADAPESQNNCRLIAYQEPADDSSFSLSQEVLRHLRQEEKEEVTVGSLKTSAVPSTSTMSQEPELLISGMEKPLPLRTDFS
# notes: precipitated or detected with a STING antibody; cells were transfected with cGAMP; also called endogenous STING; source: endogenous, HT1080 lysate
# Biological target: the molecule itself
# Test: non-reducing gel of immunoprecipitated STING; HT1080 cells with or without 1 h R406 pretreatment, cGAMP for 3 h; IP with STING antibody, nonreducing gel (no DTT in lysate and loading buffer), detected with STING antibody
protein,measurement,value
B1,stoichiometry N,2
